Measured affinities in a library of Ab-14 heavy chain variants

Data: MIT Lincoln Laboratory AlphaSeq set, Li et al. 2023, doi:10.1038/s41467-023-39022-2, as distributed in FLAb.

Binding partner: SARS-CoV-2 spike HR2 peptide, sequence PDVDLGDISGINAS.

Each scFv is VH, a (GGGGS)3 linker, VL, as in the parent Ab-14, and differs from it in the CDRs of the heavy chain only.
VH: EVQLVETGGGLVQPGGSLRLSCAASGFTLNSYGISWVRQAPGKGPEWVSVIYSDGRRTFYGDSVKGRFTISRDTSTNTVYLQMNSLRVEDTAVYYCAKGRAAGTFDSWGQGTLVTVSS
VL: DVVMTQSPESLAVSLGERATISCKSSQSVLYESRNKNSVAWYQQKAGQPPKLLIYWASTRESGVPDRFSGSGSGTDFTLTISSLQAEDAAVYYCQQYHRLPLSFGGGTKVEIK

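The starting antibody came from a phage panning campaign against this peptide. The variants were designed computationally from a first round of random CDR variants and then made and measured. Their group label is 14H_GPLM_Gen (GPLM: also part of the Gaussian process libraries; Gen: genetic algorithm; a sequence that several methods proposed may carry one label only). AlphaSeq pools MATa yeast showing the antibodies with MATalpha yeast showing the peptide. The frequency of each diploid, read from paired DNA barcodes, reflects how well the two displayed proteins bind. Read counts were normalised to the haploid input and turned into Kd by a linear fit to BCL2-family pairs of known affinity, for each replicate. Mating was done six times.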

Variants are written as CDR1, CDR2 and CDR3 of the heavy chain (limits as in the source). Parent: GFTLNSYGIS, VIYSDGRRTFYGDSVK, GRAAGTFDS.
Values are log10 of the apparent Kd in nM; lower means stronger binding.
The mean shown is taken over the replicates in which the pair was detected.
Where no diploid with the target was found in that replicate, the entry reads "n.d.": below detection, most likely a poor binder, though not proof of it.

CDR-H1,CDR-H2,CDR-H3,log10 Kd (nM) by replicate,"log10 Kd (nM), mean",signal with controls
GFSLKEYGIS,VIYSDGRRTFYGDSVK,GRAAGTFDS,0.12 / 0.06 / -0.04 / -0.10 / -0.16 / 0.02,-0.02,2 of 18 (2.52)
GFSLNCYGIS,VIYSDGRRTFYADSVK,GRTAGTFDS,n.d. / n.d. / n.d. / n.d. / n.d. / n.d.,n.d.,1 of 18 (1.34)
GFELNSYGIS,VIYSDGRRTFYADSVK,GRHAGTFDS,0.95 / 1.01 / 0.83 / 0.71 / 1.46 / 1.30,1.04,0 of 18
GFSLNMYGIS,VIYSDGRRTFYADSVK,GRAAGTFDS,0.78 / 0.73 / 0.57 / 0.68 / 0.51 / 0.76,0.67,1 of 18 (3.06)
GFSLNDYGIS,VIYSDGRRTFYTDSVK,GRAAGTFDS,0.05 / -0.14 / 0.47 / 0.80 / 0.54 / 0.34,0.34,0 of 18
GFSLNSYGIS,VIYSDGRRTFYADSVK,GTQAGTFDS,0.59 / 0.51 / n.d. / 0.19 / 0.13 / 0.09,0.30,0 of 18
GFDLNSYGIS,VIYSDGRRTFYEDSVK,GQAAGTFDS,0.54 / 0.44 / 0.67 / 0.74 / 0.42 / 0.60,0.57,0 of 18
GFSLNDYGIS,VIYSDGRRTFYGESVK,GRTAGTFDS,0.65 / -0.08 / 1.02 / 0.25 / 0.06 / 0.07,0.33,0 of 18
GFSLNDYGIS,VIYSDGRRTFYGWSVK,GRTAGTFDS,n.d. / n.d. / n.d. / n.d. / 0.01 / n.d.,0.01,0 of 18
GFSLNDYGIS,VIYSDGKRTFYGDSVK,GRTAGTFDS,0.04 / -0.75 / -0.51 / -0.66 / -0.33 / -0.19,-0.40,0 of 18
GFSLNSYGIS,VIYSDGRRTFYIDSVK,GTAAGTFDS,1.05 / 0.78 / -0.02 / 0.13 / 1.01 / 0.73,0.61,0 of 18
GFTLNSYGIS,VIYSDGRRTFYIDSVK,GEAAGTFDT,0.43 / 0.42 / 0.24 / 0.26 / 0.37 / 0.32,0.34,0 of 18
GFSLNDYGIS,VIYSDGRRTFYGDHVK,GRTAGTFDS,n.d. / n.d. / 0.74 / 0.67 / 0.58 / n.d.,0.66,0 of 18
GFSLNSYGIS,VIYSDGRRTFYQDSVK,GWAAGTFDS,n.d. / n.d. / 1.94 / 0.26 / n.d. / n.d.,1.10,0 of 18
MFTLESYGIS,VIYADGRRTFYGDSVK,GRAAGTFDS,n.d. / n.d. / n.d. / n.d. / 1.44 / 1.85,1.65,0 of 18
GFSLNSYGIS,VIYSDGRRTFYGDSVK,GRMAGTFDS,1.14 / 1.08 / 1.69 / 1.00 / 2.02 / 1.21,1.36,1 of 18 (2.17)
GFTLNSYGIS,VIYSDGRRTFYADSVK,GQTAGTFDL,0.12 / 0.75 / 0.86 / 0.04 / 0.86 / 0.62,0.54,0 of 18
GFDLNNYGIS,VIYSDGRRTFYGDSVK,GQAAGTFDS,-0.01 / -0.19 / 0.77 / 0.23 / 0.58 / 0.30,0.28,0 of 18
GFSLNEYGIS,VIYSDGRRTFYGDSVK,GRAAGTFDF,1.22 / 1.05 / 1.07 / 0.42 / 0.80 / 1.16,0.95,0 of 18
GFSLNSYGIS,VIYSDGRRTFYGDSVK,GRAAGTFDN,1.54 / 2.47 / n.d. / 0.96 / 1.74 / n.d.,1.68,0 of 18
GFSLNSYGIS,VIYSDGRRTFYGDSVK,GRSAGTFDS,1.90 / 0.76 / 0.87 / 0.95 / 1.42 / 1.36,1.21,1 of 18 (2.73)
GFNLNSYGIS,VIYSDGRRTFYIDSVK,GQAAGTFDS,2.38 / 2.16 / 2.91 / 2.87 / 1.94 / 2.16,2.40,0 of 18
GFTLNSYGIS,VIYADGRRTFYGDSVK,GKAAGTFDM,0.92 / 0.39 / 0.24 / 0.45 / 0.26 / 0.32,0.43,0 of 18
GFTLNSYGIS,VIYSDGRRTFYSDSVK,GQSAGTFDS,3.33 / 1.12 / 0.88 / 1.49 / 1.67 / 1.50,1.67,0 of 18
GFSLNSYGIS,VIYSDGRRTFYSDSVK,GQAAGTFDS,n.d. / n.d. / n.d. / n.d. / 1.91 / n.d.,1.91,0 of 18
GFSLNSYGIS,VIYSDGRRTFYGDMVK,GRTAGTFDS,0.46 / n.d. / 0.64 / n.d. / n.d. / n.d.,0.55,0 of 18
GFDLNSYGIS,VIYSDGRRTFYGDSVK,GREAGTFDT,0.18 / 0.21 / -0.03 / 0.10 / 0.09 / 0.31,0.14,0 of 18
GFELNSYGIS,VIYSDGRRTFYVDSVK,GRTAGTFDS,n.d. / n.d. / n.d. / n.d. / n.d. / n.d.,n.d.,0 of 18
GFTLNDYGIS,VIYSDGRRTFYGDSVK,GKTAGTFDS,n.d. / n.d. / n.d. / n.d. / n.d. / n.d.,n.d.,0 of 18
HFTLNEYGIS,VIYSDGRRTFYGDSVK,GRTAGTFDS,1.16 / 0.98 / 0.69 / n.d. / 1.60 / 1.37,1.16,0 of 18
GFTLDSYGIS,VIYSDGRRTFYADDVK,GRAAGTFDS,n.d. / -0.18 / -0.54 / 0.06 / 0.71 / 0.11,0.03,0 of 18
GFSLNSYGIS,VIYSDGRRTFYADHVK,GQTAGTFDS,2.47 / 0.86 / 1.17 / 1.67 / 0.08 / 1.00,1.21,0 of 18
GFDLNSYGIS,VIYSDGRRTFYTDSVK,GRTAGTFDS,0.20 / 0.61 / 0.08 / 0.30 / 0.19 / 0.04,0.24,1 of 18 (3.11)

A selection of 5 entries from above:

CDR-H1,CDR-H2,CDR-H3,log10 Kd (nM) by replicate,"log10 Kd (nM), mean",signal with controls
GFSLNEYGIS,VIYSDGRRTFYGDSVK,GRAAGTFDF,1.22 / 1.05 / 1.07 / 0.42 / 0.80 / 1.16,0.95,0 of 18
GFSLNCYGIS,VIYSDGRRTFYADSVK,GRTAGTFDS,n.d. / n.d. / n.d. / n.d. / n.d. / n.d.,n.d.,1 of 18 (1.34)
GFSLNSYGIS,VIYSDGRRTFYADHVK,GQTAGTFDS,2.47 / 0.86 / 1.17 / 1.67 / 0.08 / 1.00,1.21,0 of 18
GFTLDSYGIS,VIYSDGRRTFYADDVK,GRAAGTFDS,n.d. / -0.18 / -0.54 / 0.06 / 0.71 / 0.11,0.03,0 of 18
GFSLNDYGIS,VIYSDGRRTFYTDSVK,GRAAGTFDS,0.05 / -0.14 / 0.47 / 0.80 / 0.54 / 0.34,0.34,0 of 18

The range of this assay differs from that of the first round, and the authors advise against merging the two.
As a blank, each scFv also met three strains without target: over all heavy chain designs, 1% of these pairings were detected, typically at 2.08 and seldom below 0.84. Also given: how often the same scFv was detected with the empty control strains, with their mean in brackets.
In the paper, a design with two or fewer of six values counts as a poor binder.
The parent sequence was in this pool as ten entries: three were never detected, three once, and four in most replicates, with averages from 0.34 to 2.37.